Source: PMC11274511, “Synthesis of Substituted 1,2,4-Triazole-3-Thione Nucleosides Using E. coli Purine Nucleoside Phosphorylase” (Biomolecules, 2024)

Test system: HSV-1/L2(TK+)
Settings: Strain HSV-1/L2(TK+)
Protocol: Herpes simplex virus type 1 (HSV-1) strain L2 was obtained from the State’s collection of viruses at FSBI «N. F. Gamaleya National Research Centre for Epidemiology and Microbiology, Russian Ministry of Health, Russia» («D. I. Ivanovsky Institute of Virology» subdivision).
Antiviral activity in vitro was measured by the method of the cytopathic effect (CPE) inhibition assay. In 96-well plastic plates with the 24 h generated cell monolayer, 2-fold serial dilutions of the compounds were prepared. Cells infected with MOI of 0.1 PFU/cell were incubated at 37 °C in 5% CO2 atmosphere. […] Antiviral activity was assessed by determining of IC50 and IC95.
Three controls were used: (1) Toxicity control. Uninfected cells were incubated in the presence of the drug in the same concentration range as in the experiment. (2) Virus control. […] (3) Cell control. Uninfected cell cultures were incubated in the maintenance medium, which contained no drug.

5-Phenyl-1,2,4-triazole-3-thione [Compound 4]
SI (ratio of CC50 to IC50): >2
